Data from patent US20250154200A1, “CYCLIC PEPTIDE FOR CANCER IMMUNOTHERAPY” (Kansas State University Research Foundation, priority 2021, published 2025).

The chains behind the UniProt entries cited, without tags or fusion partners. Residues count along the entry.
UniProt P09793, 36-223: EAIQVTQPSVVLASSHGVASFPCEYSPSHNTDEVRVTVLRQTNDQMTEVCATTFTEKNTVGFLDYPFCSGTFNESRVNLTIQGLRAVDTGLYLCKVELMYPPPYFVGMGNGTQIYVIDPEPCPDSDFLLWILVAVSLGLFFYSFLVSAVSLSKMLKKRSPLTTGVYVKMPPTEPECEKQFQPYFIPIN

Target: CTLA4 on antigen-primed mouse CD8+ T cells (mouse) (UniProt P09793)
Experiment: cell-based or functional assay

**Q.** Which LLC-specific cell death at 36 hrs after co-culture with AP-CD8+ T cells, R10 at 10 µM does the source give for cyclic peptide R10, cyc([…]) here?
**A.** The LLC-specific cell death at 36 hrs after co-culture with AP-CD8+ T cells, R10 at 10 µM was 68.2%.
